The Ki is a dissociation constant, usually derived from enzyme kinetics or from competition with a known ligand. In general, IC50 refers to the concentration that inhibits the measured activity by half.

These results are taken from paper PMC5665883 (2017).

Structures are written as SMILES.

Experiment [1] addresses human α-thrombin (Homo sapiens, UniProt P00734). As to the kind of experiment: Chromogenic substrate assay, Ki (Dixon). The format is biochemical.
Experiment [2] deals with thrombin (Homo sapiens, UniProt P00734). As to the kind of experiment: Thrombin activity assay (amidolytic activity, S-2238). Type of experiment: biochemical.

For `CC1CNc2c(cccc2S(=O)(=O)N[C@@H](CCCNC(=N)N)C(=O)N2CC[C@@H](C)C[C@@H]2C(=O)O)C1` (some centres unmarked) [Argatroban], the Ki in experiment [1] was determined as 25 ± 1.1 nM. The compound also showed an IC50 in experiment [2] of 120 nM.
